In patent US6716833B2, “Acetylenic α-amino acid-based sulfonamide hydroxamic acid tace inhibitors” (priority 1999, dated 2004):

Molecular target: MMP-13 (Homo sapiens, UniProt P45452)
Assay: MMP-13 inhibition (thiopeptide or fluorescent peptide substrate)
Assay type: biochemical

Compound | IC50
CC#CCOc1ccc(S(=O)(=O)NC(CSCc2ccccc2)C(=O)NO)cc1 (centres unmarked) [Example 168] | 16 nM
CC#CCOc1ccc(S(=O)(=O)NC(CSC)C(=O)NO)cc1 (centres unmarked) [Example 167] | 40 nM
